Results taken from patent publication US9181236B2, “2-spiro-substituted iminothiazines and their mono-and dioxides as bace inhibitors, compositions and their use” (Merck Sharp & Dohme Corp., priority 2011, dated 2015).

By UniProt entry, the sequences of proteins in these tests, tags left out. Residues count along the entry.
UniProt P56817, 75-416 limits assumed: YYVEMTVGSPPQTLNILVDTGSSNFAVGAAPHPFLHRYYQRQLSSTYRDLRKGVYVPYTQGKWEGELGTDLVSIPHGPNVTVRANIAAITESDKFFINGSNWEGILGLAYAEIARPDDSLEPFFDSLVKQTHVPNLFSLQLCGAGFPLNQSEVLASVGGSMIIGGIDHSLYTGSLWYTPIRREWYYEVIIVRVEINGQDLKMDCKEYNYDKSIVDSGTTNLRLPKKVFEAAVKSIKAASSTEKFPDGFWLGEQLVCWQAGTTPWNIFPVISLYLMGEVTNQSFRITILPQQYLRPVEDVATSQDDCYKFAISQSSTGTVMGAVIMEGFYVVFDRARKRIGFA

Target: soluble human BACE1 catalytic domain (Homo sapiens (Human), UniProt P56817)
Assay: BACE1 HTRF FRET Assay
Assay type: biochemical
Conditions: read-out: BACE1 Ki; Ki calculated from IC50 using the Cheng-Prusoff equation

Row | Structure (SMILES) | Ki [nM]
1 | C[C@@]1(c2cc(Nc3noc4cc(Cl)cnc34)ccc2F)CS(=O)(=O)[C@@]2(CCOC2)C(=N)N1 | 5.1
2 | COc1cnc(C(=O)Nc2ccc(F)c([C@]3(C)CS(=O)(=O)C4(COC4)C(=N)N3)c2)cn1 | 24.1
3 | C[C@@]1(c2ccccc2F)CS(=O)(=O)C2(CCCC2)C(=N)N1 | 727
4 | COc1cccc2cc(-c3ccc(F)c([C@]4(C)CS(=O)(=O)C5(CCCC5)C(=N)N4)c3)[nH]c12 | 930
